US20210230178A1, “TRIOXACARCIN ANALOGS AND DIMERS AS POTENT ANTICANCER AGENTS” (William Marsh Rice University, priority 2017, published 2021)

Columns and labels:
[1] = test system: MES SA (human uterine sarcoma); conditions: read-out: IC50 MES SA
[2] = test system: MES SA DX (human uterine sarcoma cell line with marked multidrug resistance); conditions: read-out: IC50 MES SA DX
[3] = test system: HEK 293T (human embryonic kidney cancer cell line); conditions: read-out: IC50 HEK 293T

Substance: (1S,2S,3aS,4R,13aR)-2-(1,3-Dioxolan-2-yl)-12-hydroxy-7-methoxy-5-methyl-11-oxo-3a,4,8,9,10,11-hexahydro-13aH-spiro[2,4-epoxyfuro[3,2-b]naphtho[2,3-h]chromene-1,2′-oxiran]-13a-yl 2,4-dideoxy-4-(isopropylamino)-3-O-methylpentopyranoside [Trx11]
- IC50 [1]: 1.07 nM
- IC50 [2]: 3.03 nM
- IC50 [3]: 0.92 nM
